This note sets out measurements from patent US20150011421.

For data set [1], the system named is T1, Biotin-AEEEIYGEFEAKKKKC (SEQ ID NO:4).
T1 sequence: AEEEIYGEFEAKKKKC

Data set [2] relates to H2N-(CH2)4-CO-(SEQ ID NO:2)-NH-CH2-Fc.
The subject of data set [3] is Z-Leu-Arg-AMC.

For “Active c-Src kinase protein (N-terminal 6His-tagged recombinant human c-Src, molecular weight 61.7 kDa)”, in data set [1], the “change in total impedance |Z| (REIS) with 5.9 nM c-Src kinase” value is given as “Only a small change (<0.5%) in the total impedance value |Z| was observed with 5.9 nM of c-Src kinase”.
In the case of “Purified recombinant human cathepsin B (R&D Systems), activated in 5 mM DTT and 25 mM MES buffer (pH 5.0)”, in data set [2], the “(kcat/KM)·15.5 nM, difference 1/τ1-1/τ0 between tissue lysate spiked with 15.5 nM purified cathepsin B and unspiked lysate” value is 0.00093 s⁻¹; the “(kcat/KM)·15.5 nM, difference 1/τ3-1/τ2 between cathepsin B-removed MDA-MB-231 lysate spiked with 15.5 nM cathepsin B and unspiked” value was found to be 0.00096 s⁻¹; the (kcat/KM)·[E0] at 15.5 nM cathepsin B (slope of -dS/dt vs. S) was found to be 0.000745 s⁻¹; the “(kcat/KM)·[E0] at 30.7 nM cathepsin B (regular VACNF NEA)” value amounted to 0.00281 s⁻¹. In data set [2], the (kcat/KM)·[E0] at 30.7 nM cathepsin B (slope of -dS/dt vs. S) was 0.00125 s⁻¹; the “(kcat/KM)·[E0] at 62.1 nM cathepsin B (slope of -dS/dt vs. S)” value was “(2.15±0.37)×10^-3 s^-1”; the “(kcat/Km)[E0], slope of vi vs. Γsurf, [E0]=30.7 nM” value was “a slope of 1.15×10^-3 s^-1”; the “decay time constant τ at 30.7 nM cathepsin B (e-beam patterned regular VACNF NEA)” value is “The fitted exponential decay time constant τ was 353 s”. For the same substance, in data set [2], the “decay time constant τ at 30.7 nM cathepsin B (random VACNF NEAs)” value is given as 800±192 s obtained with random VACNF NEAs at the same cathepsin B concentration, the decay time constant τ of ip,acv at 15.5 nM cathepsin B (random VACNF NEA) came to 2940 s, the decay time constant τ of ip,acv at 30.7 nM cathepsin B (random VACNF NEA) came to 1290 s and the decay time constant τ of ip,acv at 62.1 nM cathepsin B (random VACNF NEA) amounted to 448 s. Moreover, in data set [2], the “specificity constant kcat/KM (ACV, average over three cathepsin B concentrations)” value is “an average value of 4.11×10^4 M^-1 s^-1 and a standard deviation of 6.66×10^3 M^-1 s^-1”; the “specificity constant kcat/KM (ACV, cathepsin B spiked into cathepsin B-removed MDA-MB-231 lysate)” value is “kcat/KM=6.19×10^4 M^-1 s^-1”; the “specificity constant kcat/KM (ACV, purified cathepsin B spiked into human breast tissue lysate)” value is on record as “kcat/KM=6.0×10^4 M^-1 s^-1”; the “specificity constant kcat/KM (ACV, straight-line fit through the origin, nine experiments)” value is reported as “(3.68±0.50)×10^4 M^-1 s^-1”. Further, in data set [2], the specificity constant kcat/KM (electrochemistry, EC, VACNF NEAs) amounted to 43000 M⁻¹ s⁻¹; the “specificity constant kcat/Km (ACV, single experiment at 30.7 nM)” value stood at 38000 M⁻¹ s⁻¹; the “time constant in the fit of surface adsorbed Fc vs. time, 30.7 nM cathepsin B” value is “Γsurf=1.55×10^-15×e^(-t/683.6)-2.19×10^-19t+1.38×10^-15”. Also, in data set [3], the specificity constant kcat/KM (fluorescence assay, FL) was 23000 M⁻¹ s⁻¹ and the “specificity constant kcat/KM (nine fluorescence experiments, same batch)” value was “(9.6±4.1)×10^4 M^-1 s^-1”.
